Assay results published in US20090298915A1, “TOPICAL DRUG DELIVERY” (priority 2006, published 2009).

By UniProt entry, the sequences of proteins in these tests, tags left out. Where a name states a change or a piece, a line headed by the entry shows the natural chain unless it says otherwise.
UniProt Q01726: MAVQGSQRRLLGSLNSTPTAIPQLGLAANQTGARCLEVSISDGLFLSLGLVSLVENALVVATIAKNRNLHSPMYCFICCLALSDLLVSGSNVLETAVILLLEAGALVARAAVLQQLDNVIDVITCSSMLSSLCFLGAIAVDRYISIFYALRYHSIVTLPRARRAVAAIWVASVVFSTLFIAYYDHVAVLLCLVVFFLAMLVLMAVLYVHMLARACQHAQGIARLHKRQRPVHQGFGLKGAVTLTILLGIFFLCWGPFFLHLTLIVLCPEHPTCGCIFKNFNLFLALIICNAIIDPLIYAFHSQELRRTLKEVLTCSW

Molecular target: T1, MC1R (Homo sapiens, UniProt Q01726)
T1 construct: expressed in transfected cells
Test: Competitive ligand binding assay at the MC1R with 125I-NDP-MSH
Details: B16UWT-3 cells, competition with 125I-NDP-MSH, compared with αMSH
Experimental: Competitive ligand binding experiments at the MC1R were carried out using B16UWT-3 cells in duplicate wells on two separate occasions. Forty thousand cells per well were seeded into 96-well plates, and following overnight incubation, the cells were washed once with binding buffer (minimal essential medium with Earle's salts, 25 mM HEPES pH 7.0, 0.2% bovine serum albumin, 1 mM 1,10-phenanthroline, 0.5 mg/l leupeptine and 200 mg/l bacitracin). Cells were incubated for 2 hours at room temperature with 0.05 ml of binding buffer containing 15,000 c.p.m. of ^125I-NDP-MSH and concentrations of unlabelled ligand ranging from 10^−2-10^−3 nM. The cells were subsequently washed twice with 0.2 ml of ice cold binding buffer and detached from the plates with 0.1 ml of 0.1 M NaOH. Radioactivity was counted using a Packard auto-Gamma Counter (Packard Bioscience Ltd., UK) and data analysed with a software package for radioligand binding analyses (GraphPad Software, Inc. San Diego, USA).

Nle^4-D-Phe^7-αMSH [NDP-MSH]
binding affinity for MC1R: greater affinity for MC1R
